## scFv variants of Ab-91 (heavy chain) against a SARS-CoV-2 spike peptide

Target: peptide PDVDLGDISGINAS, taken from heptad repeat 2 (HR2) of SARS-CoV-2 spike.

Each scFv is VL, three GGGGS repeats, VH, as in the parent Ab-91, and differs from it in the CDRs of the heavy chain only.
VL: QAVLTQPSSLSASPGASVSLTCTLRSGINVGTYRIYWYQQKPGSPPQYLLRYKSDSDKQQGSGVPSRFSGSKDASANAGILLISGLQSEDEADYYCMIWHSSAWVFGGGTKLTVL
VH: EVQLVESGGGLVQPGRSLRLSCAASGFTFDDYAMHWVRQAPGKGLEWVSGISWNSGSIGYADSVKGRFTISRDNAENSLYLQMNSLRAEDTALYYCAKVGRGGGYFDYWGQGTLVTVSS

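The starting antibody came from a phage panning campaign against this peptide. Variants in AAYL51 differ from the parent at up to three CDR positions; double and triple changes were sampled at random. The assay is AlphaSeq: two haploid yeast populations carry antibody and antigen on their surface. Pairs that bind mate more often; barcode pairs of the diploids are counted by sequencing. Read counts were normalised to the haploid input and turned into Kd by a linear fit to BCL2-family pairs of known affinity, for each replicate. The assay was run in three technical replicates.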

The parent's heavy chain CDRs are GFTFDDYAMH, GISWNSGSIGYADSVK, VGRGGGYFDY; each variant's own CDRs replace them letter for letter. Values are log10 of the apparent Kd in nM; lower means stronger binding. A mean of the replicates is given; it leaves out those without a signal. "ND" marks a missing value. The strain was present, yet no cells mated with the target were sequenced in that replicate, which points to weak or no binding. Nonspecific signal, from three strains lacking the peptide, appeared in 21% of pairings of library AAYL51, centred on 4.54 (5% of these signals below 3.26); values are not corrected for it. The control count says in how many pairings with the empty strains this scFv gave a signal, with their mean in brackets. For reference, the parent read 1.86 as the reference entry and 0.88 as a member of this library.

| CDR-H1 | CDR-H2 | CDR-H3 | log10 Kd, replicates | mean, log10 nM | signal with controls |
|---|---|---|---|---|---|
| DFQFDDYAMH | GISWNSGSIGYADSVC | VGRGGGYFDY | 3.74 / ND / ND | 3.74 | 2 of 9 (3.94) |
| GFTFDDYAMH | GISQNSGSIGSADSVK | VGAGGGYFDY | 3.17 / 4.04 / ND | 3.60 | 0 of 9 |
| GFTFRDYAMH | GESWNSGSIGYADSEK | VGRGGGYFDY | ND / 5.67 / ND | 5.67 | 3 of 9 (4.60) |
| DFVFDDYAMH | GISWNSGSIGYADSVK | VGRGGGSFDY | 4.82 / ND / ND | 4.82 | 2 of 9 (3.55) |
| GFTFDYYARH | GISWTSGSIGYADSVK | VGRGGGYFDY | ND / 5.72 / 3.63 | 4.67 | 1 of 9 (3.61) |
| GFTFDDYAMH | GICWNSGSIGYAKSVK | VDRGGGYFDY | 5.41 / ND / 4.73 | 5.07 | 4 of 9 (4.32) |
| GFTFDDYAMN | GISWNSDSIGYADSVK | VGRGGGNFDY | 4.80 / ND / ND | 4.80 | 5 of 9 (4.38) |
| GFNFDDHAMH | GISWNSGSIGYADSVK | VGRGGGYWDY | 2.70 / 2.39 / 2.62 | 2.57 | 2 of 9 (2.43) |
| GFTFPDYAMH | GISWNVGSIGYADSVK | VGRWGGYFDY | 2.50 / 1.06 / -0.06 | 1.17 | 0 of 9 |
| GFTFDEYAMH | GISWNSVSIGDADSVK | VGRGGGYFDY | 4.32 / 4.18 / 5.13 | 4.54 | 0 of 9 |
| GFTFDDYAMH | FISWNTGSIGYADVVK | VGRGGGYFDY | ND / ND / ND | ND | 0 of 9 |
| GNTFDDYAMH | GISWNSGSIGYADSDK | VGRGGGYFAY | ND / ND / ND | ND | 1 of 9 (4.48) |
| GFTFDDYAMH | GISWNSGSIGYMDSVK | VGLGGGYFWY | 5.25 / 4.82 / ND | 5.03 | 5 of 9 (4.98) |
| GFYFDDYAMH | GISWNSGSIGYADSKK | VGRGGGRFDY | ND / ND / ND | ND | 0 of 9 |
| GFTFDDYAMH | GISWNSGSIGYADSDK | VGRGGQYFDY | 3.14 / 4.52 / ND | 3.83 | 3 of 9 (4.08) |
| GFTHDDYAMH | GIVWNSGSIGYARSVK | VGRGGGYFDY | ND / ND / ND | ND | 2 of 9 (4.55) |
| GFTFTDYAMH | GISWNSGSIGIAQSVK | VGRGGGYFDY | ND / ND / ND | ND | 0 of 9 |
| GFTFIDYAMG | GISWISGSIGYADSVK | VGRGGGYFDY | ND / ND / ND | ND | 1 of 9 (3.26) |
| GFTFDDYAMH | GISWNSGSIHYADSVK | VYRGGGYFDY | ND / ND / ND | ND | 0 of 9 |
| GFTFDWYAMH | GISWNSGSIGYADSVK | VGRGGHIFDY | 1.53 / 1.33 / 1.39 | 1.42 | 5 of 9 (5.11) |
| YFTFDDYAMH | GISTNSGSIGYADSVV | VGRGGGYFDY | 1.54 / 1.65 / 0.85 | 1.34 | 2 of 9 (4.58) |
| GFTPDDYAMH | LISWNSGSIGYADSVK | VGRGGGHFDY | ND / 4.44 / ND | 4.44 | 1 of 9 (2.56) |
| GFTFHDYQMH | GISWNSGSIGYADSVK | VGRGGGYFQY | ND / ND / ND | ND | 0 of 9 |
| GFTFDDVAMH | GIKWNSGSIGYADSVK | VGRGGGYTDY | 5.22 / ND / ND | 5.22 | 2 of 9 (4.43) |
| GFTFDDYAMH | IISWNSGSIGYADSVK | VGRGGGYFDN | 4.66 / ND / 4.52 | 4.59 | 2 of 9 (4.00) |
| GFTFDDRAMH | GWSWNSGSIGYADSVK | VGVGGGYFDY | ND / 5.05 / ND | 5.05 | 4 of 9 (4.29) |
| GFTFDDYAMH | GQSWNSGSIGYADSVK | VGNGGGYFDE | ND / ND / ND | ND | 0 of 9 |
| GFTFDDYAMH | GLWWNSGSIGYADSVK | VGRGGGYFIY | 3.71 / 5.10 / ND | 4.41 | 4 of 9 (4.35) |
| GFTFHDYAMH | GISWNSGSIGYAQSVK | VPRGGGYFDY | ND / ND / ND | ND | 1 of 9 (3.56) |
| GFTFDDYAMH | GHSWNSGSIGYADSQK | VGRFGGYFDY | ND / ND / ND | ND | 0 of 9 |
| GFTFDDYAMH | GISVNSGSIAYADSVK | VGRGGGYFDE | 2.87 / 3.62 / ND | 3.25 | 0 of 9 |
| GFTYDDHAMH | GISWNSGSIGYADSVK | VGRGGGYQDY | 4.24 / 5.38 / 3.81 | 4.48 | 5 of 9 (4.55) |
| GFTFDDYAMH | GISWNSGSIGYADSNK | VGGGGRYFDY | 5.39 / 4.55 / ND | 4.97 | 4 of 9 (4.78) |
| RFTFDDYAMH | GISWNSQSIGYADSVK | NGRGGGYFDY | ND / 4.00 / ND | 4.00 | 1 of 9 (2.36) |
| GFTFDDYAMH | GISWNSGSIGYADSVE | VGRGGGYFDY | 0.96 / 0.98 / 0.41 | 0.79 | 9 of 9 (5.36) |
| GFTFDDYAMH | GISWNSESIGYHDSVK | VGRGGNYFDY | ND / 4.84 / 4.29 | 4.57 | 2 of 9 (4.52) |
| ETTFDDYAMH | GISWNSESIGYADSVK | VGRGGGYFDY | 1.27 / 1.48 / 0.87 | 1.21 | 5 of 9 (4.50) |
| GFTFDDYAMH | GISYNSGSIGNADSVK | VGRGGGLFDY | ND / ND / ND | ND | 0 of 9 |
| GFTFDDYAMH | GISWNSGSIGYADSAK | VGDGGGFFDY | ND / ND / ND | ND | 0 of 9 |
| GFTFDDYAMH | GISWTSGSIGYADSVK | VGRGPGMFDY | 5.81 / ND / ND | 5.81 | 1 of 9 (3.33) |
| YFTFDDYAMH | GISCNSGSIGYADSVK | VGRGGGYFDN | ND / 6.08 / ND | 6.08 | 3 of 9 (3.93) |

For reference, 4 entries of the list once more:

CDR-H1	CDR-H2	CDR-H3	log10 Kd, replicates	mean, log10 nM	signal with controls
GFTFPDYAMH	GISWNVGSIGYADSVK	VGRWGGYFDY	2.50 / 1.06 / -0.06	1.17	0 of 9
GFTFDDYAMH	GLWWNSGSIGYADSVK	VGRGGGYFIY	3.71 / 5.10 / ND	4.41	4 of 9 (4.35)
ETTFDDYAMH	GISWNSESIGYADSVK	VGRGGGYFDY	1.27 / 1.48 / 0.87	1.21	5 of 9 (4.50)
GFTFDDYAMH	GICWNSGSIGYAKSVK	VDRGGGYFDY	5.41 / ND / 4.73	5.07	4 of 9 (4.32)

The measurements come from Engelhart et al. 2022 (doi:10.1038/s41597-022-01779-4) through the FLAb antibody collection.